What was measured:
MT1 Receptor = MT1 Receptor (Homo sapiens, UniProt P48039); test: biochemical; conditions: MT1 Receptor Binding Ki (M)
[1] = target: human Melatonin receptor 1 (MT1) (Homo sapiens, UniProt P48039); test: biochemical
Description: Method II MT1 GTPγ^35S-SPA Assay Test Validation Standards
Test compounds were synthesized in house. […] 2 μl of diluted compounds were transferred to Optic-assay-plates.
(Freshly add protease inhibitor cocktail tables from Roche). […] The protein concentration of the membrane was determined. The membranes were aliquoted and stored at −80° C.
• MAX response (100% effect) was determined as the effect of 3 nM of 2-lodomelatonin. • MIN response (0% effect) was determined as the effect of vehicle control. Description of Experimental Procedure
The final concentration of GTPγ^35S was 200 pM.

The chains behind the UniProt entries cited, without tags or fusion partners.
UniProt P48039, whole entry: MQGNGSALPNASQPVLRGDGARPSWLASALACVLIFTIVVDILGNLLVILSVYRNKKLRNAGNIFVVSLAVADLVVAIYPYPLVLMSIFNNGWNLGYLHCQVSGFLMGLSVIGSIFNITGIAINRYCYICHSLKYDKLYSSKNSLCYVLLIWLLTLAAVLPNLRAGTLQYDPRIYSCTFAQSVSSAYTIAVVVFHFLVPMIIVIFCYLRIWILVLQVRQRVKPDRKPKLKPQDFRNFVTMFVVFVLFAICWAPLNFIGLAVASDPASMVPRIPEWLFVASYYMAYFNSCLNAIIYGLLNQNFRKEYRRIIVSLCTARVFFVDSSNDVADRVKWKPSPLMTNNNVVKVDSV

Structure (SMILES): CCCNC(=O)c1nnc2c(-c3ccc(OC)cc3OC)c(F)ccc2c1N
- Ki (MT1 Receptor): 9e-08 M
- EC50 ([1]; MT1 Receptor GTPgS EC50 (M)): 1.55e-08 M
- Emax ([1]; read-out: MT1 Receptor GTPgS Emax): 54%

From patent US7425556B2 (priority 2005, dated 2008)
